This assay relates to Calf thymus DNA. Kind of assay: Binding constant (log K) for DNA binding by ethidium bromide displacement. Format: nucleic-acid assay. Conditions: Bos taurus.

Molecules are shown by their SMILES.

In the case of `CNc1cc(NS(C)(=O)=O)ccc1Nc1c2ccccc2nc2ccccc12`, the Log K was 6.42.

The values are drawn from ChEMBL document CHEMBL1123442 (J Med Chem, 1986).
